Assay results as given in US9550796B2, “Pyrrolopyrrolone derivatives and their use as BET inhibitors” (NOVARTIS AG, priority 2013, dated 2017).

Amino acid sequences for entries named in this document (tags omitted). Residues count along the entry.
UniProt Q92793, 1081-1197: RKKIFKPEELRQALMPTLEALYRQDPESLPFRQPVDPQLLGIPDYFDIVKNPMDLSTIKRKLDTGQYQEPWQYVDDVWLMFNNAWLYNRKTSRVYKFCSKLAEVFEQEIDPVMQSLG

How the values were obtained:
[1] = biological target: CREBBP (Homo sapiens (Human), UniProt Q92793); test: AlphaScreen in-vitro binding assay for CREBBP; conditions: 324 nM His-CREBBP (1081-1197), acetyl-histone H4 (AcK 5, 8, 12) peptide
Description: AlphaScreen In-Vitro Binding Assay for CREBBP
In order to assess bromodomain selectivity, we set up a binding assay using the bromodomain encoded by the CREBBP gene. Compounds were tested in the CREBBP assay with a similar protocol, however using AlphaScreen (Amplified Luminescent Proximity Homogeneous Assay, Perkin Elmer) as detection readout instead of TR-FRET. The assay was started by stepwise addition of 4.5 μL per well of bromo domain protein (50 mM HEPES, pH 7.5, 0.005% Tween20, 0.02% BSA, 150 mM NaCl, 324 nM His-CREBBP (1081-1197) (custom production at Viva Biotech Ltd.)) and 4.5 μL per well of peptide solution (50 mM HEPES, pH 7.5, 0.005% Tween20, 0.02% BSA, 150 mM NaCl, 120 nM acetyl-histone H4 (AcK 5, 8, 12) (Biosyntan GmbH)). Reactions were incubated at 30° C. for 35 minutes. Subsequently 4.5 μL per well detection mix (50 mM HEPES, pH 7.5, 0.005% Tween20, 0.02% BSA, 150 mM NaCl, 45 μg/ml Ni-chelate acceptor beads, 45 μg/mL streptavidin-donor beads) (Perkin Elmer)) were added. After 60 minutes incubation at room temperature, plates were measured in a Perkin Elmer EnVision multilabel reader. IC50 values were determined from percent inhibition values at different compound concentrations by non-linear regression analysis.
Test compounds were dissolved in DMSO (10 mM) and transferred into 1.4 mL flat bottom or V-shaped Matrix tubes carrying a unique 2D matrix. […]

[2] = biological target: BRD4 (Homo sapiens (Human), UniProt O60885); test: TR-FRET in-vitro binding assay for BRD4; conditions: 45 nM His-Brd4(44-477), acetyl-histone H4 (AcK 5, 8, 12, 16) peptide
Description: TR-FRET In-Vitro Binding Assays for BRD2, BRD3, and BRD4: All assays were performed in 384-well microtiter plates. […] Liquid handling and incubation steps were done on an Innovadyne Nanodrop Express equipped with a robotic arm (Thermo CatX, Perkin Elmer/Caliper Twister II) and an incubator (Liconic STX40, Thermo Cytomat 2C450). The assay plates were prepared by addition of 50 nl per well of compound solution in 90% DMSO HummingBird nanodispenser (Zinsser Analytic). […] Reactions were incubated at 30° C. for 35 minutes. […] After 35 minutes incubation at 30° C., plates were measured in a Perkin Elmer EnVision multilabel reader. […] The stock solutions were stored at […] if not used immediately. For the test procedure the vials were defrosted and identified by a scanner whereby a working sheet was generated that guided the subsequent working steps. Compound dilutions were made in 96 well plates. This format enabled the assay of maximally […] at 8 concentrations (single points) including 4 reference compounds, if desired (known BET inhibitors from the prior art, for this and other assays of the type disclosed herein). The dilution protocol included the production of “pre-dilution plates”, “master plates” and “assay plates”. Polypropylene 96-well plates were used as pre-dilution plates. […] All dilution steps were done on a HamiltonSTAR robot. […]

pIC50 [1]: 4.95
pIC50 [2]: 5.97
Compound: COc1cccc(C2c3c(ccn3C)C(=O)N2c2cc(Cl)c(=O)n(C)c2)c1 (centres unmarked) [Example 91, 5-(5-chloro-1-methyl-6-oxo-1,6-dihydropyridin-3-yl)-6-(3-methoxyphenyl)-1-methyl-5,6-dihydropyrrolo[3,4-b]pyrrol-4(1H)-one]

pIC50: −log10 of the molar value.
